Protein sequences, listed by entry. Tags and fused reporters are not part of them. Lines headed by an entry give the natural chain unless they say otherwise; changes in a name come on top.
UniProt P41145: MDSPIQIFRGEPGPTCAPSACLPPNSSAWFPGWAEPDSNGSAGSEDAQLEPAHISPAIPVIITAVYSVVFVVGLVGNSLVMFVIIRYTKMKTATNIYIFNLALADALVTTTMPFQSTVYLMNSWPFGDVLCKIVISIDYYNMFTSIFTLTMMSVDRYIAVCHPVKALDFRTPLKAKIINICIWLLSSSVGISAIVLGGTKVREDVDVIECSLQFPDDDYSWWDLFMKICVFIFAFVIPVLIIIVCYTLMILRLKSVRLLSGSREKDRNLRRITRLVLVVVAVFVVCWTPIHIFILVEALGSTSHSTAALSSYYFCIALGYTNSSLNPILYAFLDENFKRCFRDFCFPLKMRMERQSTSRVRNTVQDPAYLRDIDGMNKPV
UniProt P35372, whole entry: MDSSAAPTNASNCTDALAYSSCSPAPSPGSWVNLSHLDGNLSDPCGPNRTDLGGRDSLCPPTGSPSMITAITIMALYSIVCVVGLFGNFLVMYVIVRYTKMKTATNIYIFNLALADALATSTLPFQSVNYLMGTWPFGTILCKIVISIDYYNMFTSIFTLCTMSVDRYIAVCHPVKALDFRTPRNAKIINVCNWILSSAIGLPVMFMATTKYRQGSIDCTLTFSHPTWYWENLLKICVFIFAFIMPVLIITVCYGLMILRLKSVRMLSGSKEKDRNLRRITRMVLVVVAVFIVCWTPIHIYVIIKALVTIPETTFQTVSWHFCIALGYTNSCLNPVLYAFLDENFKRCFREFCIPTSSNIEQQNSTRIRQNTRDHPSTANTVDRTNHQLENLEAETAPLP

According to ChEMBL document CHEMBL1153960, “Syntheses of novel high affinity ligands for opioid receptors” (Bioorg Med Chem Lett, 2009):

How the values were obtained:
Test in all cases: biochemical
[1] = target: Kappa-type opioid receptor (Homo sapiens, UniProt P41145)
Mu-type opioid receptor [2] = target: T1, Mu-type opioid receptor (Homo sapiens, UniProt P35372)
Mu-type opioid receptor [3] = target: T1, Mu-type opioid receptor; remark: listed apart in the source
Mu-type opioid receptor [4] = target: T1, Mu-type opioid receptor; remark: listed apart in the source

Compound	Ki [1] [nM]	Ki (Mu-type opioid receptor [2]) [nM]	EC50 (Mu-type opioid receptor [3]) [nM]	IC50 (Mu-type opioid receptor [4]) [nM]
Oc1ccc2c3c1O[C@H]1c4[nH]c5ccccc5c4C[C@@]4(O)[C@@H](C2)N(CC2CC2)CC[C@]314 [NALTRINDOLE]	2.9	5.3		
NC(=O)c1ccc2c(c1O)[C@@]13CCCC[C@@]1(O)[C@@H](C2)N(CC1CC1)CC3		0.16	10	3.8
